# Measured values reported in US11312682B2, “Selective inhibitors of carbonic anhydrase” (VILNIUS UNIVERSITY, priority 2015, dated 2022).
# Target: human recombinant CA II (Homo sapiens, UniProt P00918)
# Experiment: Fluorescent thermal shift assay (FTSA), binding to CA II
# Conditions: Table 1; FTSA at 37° C. and pH 7.0; read-out: Dissociation constants, CA II
substance,measurement,value
"2,4-dichloro-5-[2-(5-methoxybenzimidazol-1-yl)acetyl]benzenesulfonamide and 2,4-dichloro-5-[2-(6-methoxybenzimidazol-1-yl)acetyl]benzenesulfonamide [Compound 31]",Kd,500 nM
